Test results: patent US8841342B2, “Carrier” (Vital Health Sciences Pty. Ltd., priority 2002, dated 2014)

Experiment: Acute transdermal penetration of 3H-estradiol and 3H-estradiol phosphate in the hairless rat
Type: in vivo, female albino hairless rats

**Q.** What does the source list for `C[C@]12CC[C@@H]3c4ccc(O)cc4CC[C@H]3[C@@H]1CC[C@@H]2OP(=O)(O)O` [EP, estradiol 3:phosphate]?
**A.** absorption of tritiated compound 24 hours after transdermal application (FIG. 3) (5 μg in carrier cream of Example 1): more readily absorbed in comparison to E; amount remaining in the skin 24 hours after application (analysis of individual skin layers): minimal E or EP remained in the skin
